Sequences of proteins named here, by UniProt entry; tags and fusion partners are left off.
UniProt Q01827, whole entry: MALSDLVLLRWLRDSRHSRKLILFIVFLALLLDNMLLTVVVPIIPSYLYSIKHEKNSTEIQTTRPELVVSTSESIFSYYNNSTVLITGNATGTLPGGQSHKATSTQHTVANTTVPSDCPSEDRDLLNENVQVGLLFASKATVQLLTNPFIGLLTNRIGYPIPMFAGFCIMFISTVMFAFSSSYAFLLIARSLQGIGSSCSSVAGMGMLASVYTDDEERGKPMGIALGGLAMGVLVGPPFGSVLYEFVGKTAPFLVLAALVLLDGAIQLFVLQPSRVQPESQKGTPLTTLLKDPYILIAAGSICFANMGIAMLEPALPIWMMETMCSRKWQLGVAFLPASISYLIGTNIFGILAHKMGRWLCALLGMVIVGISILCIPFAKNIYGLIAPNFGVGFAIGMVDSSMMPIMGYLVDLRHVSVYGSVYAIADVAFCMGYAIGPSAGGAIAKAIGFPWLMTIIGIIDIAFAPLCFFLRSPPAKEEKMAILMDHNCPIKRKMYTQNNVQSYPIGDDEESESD

In patent publication US20210228566A1, “METHODS OF TREATING A NEUROLOGICAL OR PSYCHIATRIC DISORDER” (priority 2018, published 2021):

Target: T1, VMAT2 (Rattus norvegicus, UniProt Q01827)
T1 construct: from tissue; host or cells: rat forebrain membranes
Assay: inhibition of [3H]-DHTBZ binding to rat forebrain membranes

For `COc1cc2c(cc1OC)[C@@H]1C[C@@H](O)[C@@H](CC(C)C)CN1CC2` [R,S,S-DHTBZ], the “affinity weaker than R,R,R-DHTBZ” value was about 160 times.

In the case of `COc1cc2c(cc1OC)[C@@H]1C[C@H](O)[C@@H](CC(C)C)CN1CC2` [S,S,S-DHTBZ], the “affinity weaker than R,R,R-DHTBZ” value is reported as “approximately 60 times”.
